Earlier results on five compounds are cited in patent publication EP1156371A2, “Replenishing method of planographic printing plate developer” (FUJI PHOTO FILM CO., LTD., priority 2000, dated 2001).

The conditions of the series: dissociation constant of weak acid, aqueous solution.

In the case of 1-amino-3,3,3-trifluorobenzoic acid, the pKa (commonly the negative logarithm of the acid dissociation constant) was 12.29.

As to 3,4-dihydroxysulfonic acid, the pKa was 12.2.

With `ON=C1CCCCCC1=NO` [1,2-cycloheptanedione dioxime], the pKa is on record as 12.3.

For the compound `Nc1cc[nH]c(=O)n1` [cytosine], the pKa is reported as 12.3.

Turning to `CN(C)CP(=O)(O)O` [dimethylaminomethyl phosphonic acid], the pKa was 12.32.
